What follows are compounds tested against T1, Met kinase domain (GST fusion protein) (Homo sapiens, UniProt P08581) (assay: Met transphosphorylation assay (ELISA, poly(glu-tyr) substrate)). Conditions: not given.
T1 construct: Purified GST fusion protein containing the Met kinase domain
Type: biochemical
Experimental: Met Transphosphorylation Assay
• 1. […] PBS, Gibco Catalog # 450-1300EB • 4. 50 mM HEPES • 5. […] TBST Buffer. • 8. 10% aqueous (MilliQue H2O) DMSO. • 9. […] 4× ATP Reaction Mixture: for 10 mL, mix 0.4 mL 1 M manganese chloride and 0.02 mL 0.1 M ATP in 9.56 mL dH2O. • 12. 4× Negative Controls Mixture: for 10 mL, mix 0.4 mL 1 M manganese chloride in 9.6 mL dH2O. • 13. […] 500 mM EDTA. • 15. […] Goat anti-rabbit horseradish peroxidase conjugated antibody, Biosource, Inc. • 18. ABTS Solution: for 1 L, mix 19.21 g citric acid, 35.49 g Na2HPO4 and 500 mg ABTS with sufficient dH2O to make 1 L. • 19. […] 0.2 M HCl Procedure: • 1. […] Block plate with 150 μL of 5% BSA/PBS for 60 min. • 3. […] Add 50 μl of the diluted kinase to all wells. (Purified kinase is diluted with Kinase Dilution Buffer. Final concentration should be 10 ng/well.) • 5. Add 25 μL of the test compound (in 4% DMSO) or DMSO alone (4% in dH2O) for controls to plate. • 6. Incubate the kinase/compound mixture for 15 minutes. • 7. Add 25 μL of 40 mM MnCl2 to the negative control wells. • 8. Add 25 μL ATP/MnCl2 mixture to the all other wells (except the negative controls). Incubate for 5 min. • 9. Add 25 μL 500 mM EDTA to stop reaction. • 10. Wash plate 3× with TBST. • 11. Add 100 μL rabbit polyclonal anti-Ptyr diluted 1:10,000 in Antibody Dilution Buffer to each well. Incubate, with shaking, at room temperature for one hour. • 12. Wash plate 3× with TBST. • 13. […] Add 100 μL per well and incubate at room temperature, with shaking, for one hour. • 14. Wash plate 1× with PBS. • 15. Add 100 μl of ABTS/H2O2 solution to each well. • 16. If necessary, stop the development reaction with the addition of 100 μl of 0.2M HCl per well. • 17.
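Note: Cell-free ELISA with plate-bound poly(Glu:Tyr 4:1) phosphorylated by GST-fused Met kinase domain plus ATP and Mn2+, phosphotyrosine detected by anti-phosphotyrosine antibody with HRP and ABTS read-out.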

By UniProt entry, the sequences of proteins in these tests, tags left out. Residues count along the entry.
UniProt P08581, 1078-1345 limits assumed: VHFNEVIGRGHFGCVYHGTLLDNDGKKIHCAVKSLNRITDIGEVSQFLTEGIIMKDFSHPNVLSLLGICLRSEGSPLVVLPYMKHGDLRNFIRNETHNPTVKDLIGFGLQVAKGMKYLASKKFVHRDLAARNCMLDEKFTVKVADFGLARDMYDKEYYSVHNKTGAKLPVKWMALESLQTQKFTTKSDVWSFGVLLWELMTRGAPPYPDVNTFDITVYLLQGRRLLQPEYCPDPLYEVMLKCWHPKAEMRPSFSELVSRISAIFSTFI

SMILES | IC50
Nc1ncc(-c2ccc(C(=O)N3CCC(N4CCCC4)CC3)cc2)cc1OCc1c(Cl)cccc1Cl [Example I-41, {4-[6-Amino-5-(2,6-dichloro-benzyloxy)-pyridin-3-yl]-phenyl}-(4-pyrrolidin-1-yl-piperidin-1-yl)-methanone] | 0.35 µM
Nc1ncc(-c2ccc(C(=O)N3CCC(N4CCCC4)CC3)cc2)cc1OCc1ccccc1Cl [Example I-155, {4-[6-Amino-5-(2-chloro-benzyloxy)-pyridin-3-yl]-phenyl}-(4-pyrrolidin-1-yl-piperidin-1-yl)-methanone] | 1.5 µM
N#Cc1ccccc1COc1cc(-c2ccc(C(=O)N3CCC(N4CCCC4)CC3)cc2)cnc1N [Example I-165, 2-{2-Amino-5-[4-(4-pyrrolidin-1-yl-piperidine-1-carbonyl)-phenyl]-pyridin-3-yloxymethyl}-benzonitrile] | 3.9 µM
CN1CCC(NC(=O)c2ccc(-c3cnc(N)c(OCc4ccccc4C#N)c3)cc2)CC1 [Example I-168, 4-[6-Amino-5-(2-cyano-benzyloxy)-pyridin-3-yl]-N-(1-methyl-piperidin-4-yl)-benzamide] | 10.8 µM
Nc1ncc(-c2ccc(C(=O)N3CCC(N4CCCC4)CC3)cc2)cc1OCc1ccc(Cl)cc1Cl [Example I-176, {4-[6-Amino-5-(2,4-dichloro-benzyloxy)-pyridin-3-yl]-phenyl}-(4-pyrrolidin-1-yl-piperidin-1-yl)-methanone] | 0.85 µM
CN1CCC(NC(=O)c2ccc(-c3cnc(N)c(OCc4ccc(Cl)cc4Cl)c3)cc2)CC1 [Example I-179, 4-[6-Amino-5-(2,4-dichloro-benzyloxy)-pyridin-3-yl]-N-(1-methyl-piperidin-4-yl)-benzamide] | 1.12 µM
CCN(CC)CCS(=O)(=O)Nc1ccc(-c2cnc(N)c(OCc3c(F)ccc(F)c3Cl)n2)cc1 [II-17] | 0.46 µM
Nc1ncc(-c2ccc(NS(=O)(=O)CCN3CCN(C(=O)CO)CC3)cc2)nc1OCc1c(F)ccc(F)c1Cl [II-19, 2-[4-(2-Hydroxy-acetyl)-piperazin-1-yl]-ethanesulfonic acid {4-[5-amino-6-(2-chloro-3,6-difluoro-benzyloxy)-pyrazin-2-yl]-phenyl}-amide] | 0.45 µM
C[C@@H]1CN(C(=O)c2ccc(-c3cnc(N)c(OCc4c(F)ccc(F)c4Cl)n3)cc2)C[C@H](C)N1 [II-41, {4-[5-Amino-6-(2-chloro-3,6-difluoro-benzyloxy)-pyrazin-2-yl]-phenyl}-(3,5-dimethyl-piperazin-1-yl)-methanone] | 0.48 µM
Nc1ncc(-c2ccc(C(=O)N3CCC(N4CCCC4)CC3)cc2)nc1OCc1c(F)ccc(F)c1Cl [II-42, {4-[5-Amino-6-(2-chloro-3,6-difluoro-benzyloxy)-pyrazin-2-yl]-phenyl}-(4-pyrrolidin-1-yl-piperidin-1-yl)-methanone] | 0.33 µM
CN1CCC(NC(=O)c2ccc(-c3cnc(N)c(OCc4c(F)ccc(F)c4Cl)n3)cc2)CC1 [II-44, 4-[5-Amino-6-(2-chloro-3,6-difluoro-benzyloxy)-pyrazin-2-yl]-N-(1-methyl-piperidin-4-yl)-benzamide] | 0.5 µM
C[C@@H]1CN(C(=O)c2cccc(-c3cnc(N)c(OCc4c(F)ccc(F)c4Cl)n3)c2)C[C@H](C)N1 [II-51, {3-[5-Amino-6-(2-chloro-3,6-difluoro-benzyloxy)-pyrazin-2-yl]-phenyl}-(3,5-dimethyl-piperazin-1-yl)-methanone] | 2.56 µM

Same assay, conditions: Table 2

SMILES | IC50
Nc1ncc(-c2ccc(C(=O)N3CCC(N4CCCC4)CC3)cc2)cc1OCc1ccccc1C(F)(F)F [Example I-187, {4-[6-Amino-5-(2-trifluoromethyl-benzyloxy)-pyridin-3-yl]-phenyl}-(4-pyrrolidin-1-yl-piperidin-1-yl)-methanone] | 1.01 µM
CN1CCC(NC(=O)c2ccc(-c3cnc(N)c(OCc4ccccc4C(F)(F)F)c3)cc2)CC1 [Example I-190, 4-[6-Amino-5-(2-trifluoromethyl-benzyloxy)-pyridin-3-yl]-N-(1-methyl-piperidin-4-yl)-benzamide] | 3.8 µM
CN1CCC(NC(=O)c2ccc(-c3cnc(N)c(OCc4ccc(C(C)(C)C)cc4)c3)cc2)CC1 [Example I-199, 4-[6-Amino-5-(4-tert-butyl-benzyloxy)-pyridin-3-yl]-N-(1-methyl-piperidin-4-yl)-benzamide] | 2.92 µM
CC(C)(C)c1ccc(COc2cc(-c3ccc(C(=O)NCCCN4CCOCC4)cc3)cnc2N)cc1 [Example I-201, 4-[6-Amino-5-(4-tert-butyl-benzyloxy)-pyridin-3-yl]-N-(3-morpholin-4-yl-propyl)-benzamide] | 6.3 µM
Nc1ncc(-c2ccc(C(=O)N3CCC[C@@H]3CN3CCCC3)cc2)cc1OCc1ccc(F)cc1Cl [Example I-203, {4-[6-Amino-5-(2-chloro-4-fluoro-benzyloxy)-pyridin-3-yl]-phenyl}-[(2R)-2-pyrrolidin-1-ylmethyl-pyrrolidin-1-yl]-methanone] | 1.48 µM
Nc1ncc(-c2ccc(C(=O)N3CCC[C@H]3CN3CCCC3)cc2)cc1OCc1ccc(F)cc1Cl [Example I-204, {4-[6-Amino-5-(2-chloro-4-fluoro-benzyloxy)-pyridin-3-yl]-phenyl}-[(2S)-2-pyrrolidin-1-ylmethyl-pyrrolidin-1-yl]-methanone] | 2.5 µM
Nc1ncc(-c2ccc(C(=O)N3CCC(N4CCCC4)CC3)cc2)cc1OCc1c(F)ccc(F)c1Cl [Example I-213, {4-[6-Amino-5-(2-chloro-3,6-difluoro-benzyloxy)-pyridin-3-yl]-phenyl}-(4-pyrrolidin-1-yl-piperidin-1-yl)-methanone] | 0.049 µM
C[C@@H]1CN(C(=O)c2ccc(-c3cnc(N)c(OCc4c(F)ccc(F)c4Cl)c3)cc2)C[C@H](C)N1 [Example I-215, {4-[6-Amino-5-(2-chloro-3,6-difluoro-benzyloxy)-pyridin-3-yl]-phenyl}-(3,5-dimethyl-piperazin-1-yl)-methanone] | 0.1 µM
Nc1ncc(-c2cccc(C(=O)N3CCC(N4CCCC4)CC3)c2)cc1OCc1c(F)ccc(F)c1Cl [Example I-227, {3-[6-Amino-5-(2-chloro-3,6-difluoro-benzyloxy)-pyridin-3-yl]-phenyl}-(4-pyrrolidin-1-yl-piperidin-1-yl)-methanone] | 0.05 µM
Nc1ncc(-c2cccc(C(=O)N3CCC[C@H]3CN3CCCC3)c2)cc1OCc1c(F)ccc(F)c1Cl [Example I-230, {3-[6-Amino-5-(2-chloro-3,6-difluoro-benzyloxy)-pyridin-3-yl]-phenyl}-[(2S)-2-pyrrolidin-1-ylmethyl-pyrrolidin-1-yl]-methanone] | 0.19 µM
CN1CCC(NC(=O)c2cccc(-c3cnc(N)c(OCc4c(F)ccc(F)c4Cl)c3)c2)CC1 [Example I-234, 3-[6-Amino-5-(2-chloro-3,6-difluoro-benzyloxy)-pyridin-3-yl]-N-(1-methyl-piperidin-4-yl)-benzamide] | 0.23 µM
CC(Oc1cc(-c2ccc(C(=O)NC3CCN(C)CC3)cc2)cnc1N)c1c(Cl)ccc(F)c1Cl (centres unmarked) [Example I-292, 4-{6-Amino-5-[1-(2,6-dichloro-3-fluoro-phenyl)-ethoxy]-pyridin-3-yl}-N-(1-methyl-piperidin-4-yl)-benzamide] | 0.069 µM
CC(=O)N1CCN(CCNC(=O)c2ccc(-c3cnc(N)c(OC(C)c4c(Cl)ccc(F)c4Cl)c3)cc2)CC1 (centres unmarked) [Example I-300, N-[2-(4-Acetyl-piperazin-1-yl)-ethyl]-4-{6-amino-5-[1-(2,6-dichloro-3-fluoro-phenyl)-ethoxy]-pyridin-3-yl}-benzamide] | 0.059 µM
CC(Oc1cc(-c2ccc(C(=O)N3CC[C@H](N)C3)cc2)cnc1N)c1c(Cl)ccc(F)c1Cl (stereo partly drawn) [Example I-303, (4-{6-Amino-5-[1-(2,6-dichloro-3-fluoro-phenyl)-ethoxy]-pyridin-3-yl}-phenyl)-((S)-3-amino-pyrrolidin-1-yl)-methanone] | 0.059 µM
CC(Oc1cc(-c2cccc(C(=O)NCCCN3CCOCC3)c2)cnc1N)c1c(Cl)ccc(F)c1Cl (centres unmarked) [Example I-317, 3-{6-Amino-5-[1-(2,6-dichloro-3-fluoro-phenyl)-ethoxy]-pyridin-3-yl}-N-(3-morpholin-4-yl-propyl)-benzamide] | 0.059 µM
CC(Oc1cc(-c2ccc(NS(=O)(=O)CCN3CCC(O)CC3)cc2)cnc1N)c1c(Cl)ccc(F)c1Cl (centres unmarked) [Example I-324] | 0.059 µM

Same assay, conditions: plain numbers in column Met IC50 (μM) of Table 2

IC50 | SMILES
0.059 µM | CC(Oc1cc(-c2ccc(C(=O)NCCN3CCCC3)cc2)cnc1N)c1c(Cl)cccc1Cl (centres unmarked) [Example I-400, 4-{6-Amino-5-[1-(2,6-dichloro-phenyl)-ethoxy]-pyridin-3-yl}-N-(2-pyrrolidin-1-yl-ethyl)-benzamide]
